# Compound activity (PubChem)
# MC4R antag cAMP – antagonists of human melanocortin 4 receptor (MC4R); P32245; MC4R-expressing cells, MTII-stimulated cAMP, LANCE TR-FRET; inhibition, % at 6.5 µM; actives 0.48% (n = 360,000); AID 540295;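 active means inhibition above its plate's cutoff, the mean of tested wells on that plate plus 3 SD, cut at about 29% in these data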;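 further: 0% = Melanotan II alone and 100% = Melanotan II plus saturating MCL0020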
#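 Material: human MC4R-expressing U2OS cells. Probe or stimulus: Melanotan II challenge. Dosing: 6.5 µM single dose. Times: 30-min compound, 1-h challenge, 1-h detection, room temperature. Technique: TR-FRET with Eu-cAMP and labeled anti-cAMP, 671 nm. Replication: singlicate.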
# HDAC3 inh – blocks human histone deacetylase 3; O15379; recombinant HDAC3, fluorogenic peptide/trypsin coupled, fluorescence; actives 0.15% (n = 320,000); AID 2718; inhibition, % at 8.3 µM; in the data active means inhibition above about 26%, passing the limit was not always enough
# MC4R barr agon – activates human MC4R beta-arrestin recruitment; U2OS MC4R beta-arrestin complementation, luminescence; percent of melanotan II response, DMSO zero; AID 540308; P32245; activation, % at 8.9 µM; actives 0.98% (n = 360,000);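 active means activation above a per-plate cutoff, the mean activation of sample wells on that plate plus 3 SD, cut at about 8% in these data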
# UUG fidelity – alters start codon recognition fidelity in yeast. S. cerevisiae UUG-firefly luciferase reporter, luminescence/redox ratio. AID 602363. activity score, % at 18.7 µM. hit rate 0.13% among 350,000;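 active = replicate mean at a twofold rise or more, about +100% in these data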;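 note: firefly luciferase made from a UUG start codon reports start codon fidelity; reporter light over untreated wells divided by growth signal over untreated wells; some hits fall short of that in this replicate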
# ALR inh – human ALR oxidase inhibition via reduced H2O2. P55789. purified ALR, DTT oxidation, H2O2 HRP-luminol luminescence. inhibition, % (no concentration beside the values). 290,000 tested, 3.8% active. AID 485317;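 active = mean and each replicate at 75% or more; inconclusive = only one of the two met; inactive = neither met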;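 also: stock transfer was 7.5 nL into about 7.5 µL; 0% = neutral wells and 100% = wells with inactivated enzyme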
# NALP1 inh – inhibitors of NALP1 inflammasome in yeast. S. cerevisiae NALP1/ASC/caspase-1 growth, X-gal OD620, 72 h. inhibition, % at 10 µM. actives 0.61% (n = 280,000); in the data active means inhibition mostly above about 24%, no sharp cut-off; inactive means mostly below about 32%
# * = called active by the depositor; nt = not tested or not shown. This is a sample that favours compounds with a hit; in the whole collection about 4.2% have one here.
1: COC(=O)c1c(NC(=O)C2CC=CCC2C(=O)O)sc(C(N)=O)c1C (stereo not given)
2: O=c1c(C(c2ccc(Cl)cc2)c2c(O)nc3n(c2=O)CCS3)c(O)nc2n1CCS2
3: CC(=O)c1ccc(N2CCN(c3ccc(C(N)=O)cc3[N+](=O)[O-])CC2)cc1
4: NC(=O)c1ccc(N2CCN(c3ccc(O)cc3)CC2)c([N+](=O)[O-])c1
5: COc1ccc(N2CCN(c3ccc(C(=O)O)cc3[N+](=O)[O-])CC2)cc1

screen / no. | 1 | 2 | 3 | 4 | 5
MC4R antag cAMP | 10 | 2 | 9 | 3 | 10
HDAC3 inh | 6 | 5 | 10 | 10 | -1
MC4R barr agon | -2 | -1 | 0 | -3 | 0
UUG fidelity | 16 | nt | nt | nt | -17
ALR inh | 99* | 98* | -7 | 99* | 79*
NALP1 inh | -24 | 26 | 11 | -8 | -1

6: NC(CSS(=O)(=O)O)=NCCC12CC3CC(CC(O)(C3)C1)C2
7: O=C(CCN1C(=O)/C(=C/c2ccccc2)SC1=S)NCCc1ccc(O)cc1
8: COc1ccc(/C=C2\SC(=S)N(CCC(=O)NCCc3ccc(O)cc3)C2=O)cc1
9: O=C(CCN1C(=O)/C(=C/c2ccc(F)cc2)SC1=S)NCCc1cnc[nH]1
10: CC1C/C(=N\NC(=O)c2ccc(NS(=O)(=O)c3ccc(Br)cc3)cc2)CC(C)(C)C1 (stereo not given)

screen / no. | 6 | 7 | 8 | 9 | 10
MC4R antag cAMP | 5 | 5 | 10 | 2 | 6
HDAC3 inh | -4 | -4 | 4 | 8 | 37*
MC4R barr agon | 1 | 9.3* | -1 | -4 | -2
UUG fidelity | nt | -1 | -25 | -22 | nt
ALR inh | 85* | 1 | 0 | 98* | 2
NALP1 inh | 12 | -18 | 15 | -15 | 24

11: CC1C/C(=N\NC(=O)c2ccc([N+](=O)[O-])cc2)CC(C)(C)C1 (stereo not given)
12: C[C@@H]1CN([C@@H](C)CO)C(=O)c2cc(NC(=O)C3CC3)ccc2O[C@@H]1CN(C)Cc1ccc(C(F)(F)F)cc1
13: CCOC(=O)C1CCCN(C(=O)c2ccc3ncsc3c2)C1 (stereo not given)
14: O=C(CSc1nc2ccccc2s1)N1CCOCC1
15: COC(=O)CC1C(=O)NCCN1C(=O)CSc1nc2ccccc2s1 (stereo not given)

screen / no. | 11 | 12 | 13 | 14 | 15
MC4R antag cAMP | 2 | nt | 0 | 3 | 10
HDAC3 inh | 0 | nt | -2 | 1 | 0
MC4R barr agon | -2 | nt | -1 | -2 | -2
UUG fidelity | -20 | 28 | -5 | -22 | nt
ALR inh | -4 | nt | 96* | 97* | 99*
NALP1 inh | nt | nt | nt | 36 | 8

16: CC1CC2(CC(C)(C(=O)CSc3nc4ccccc4s3)OC2=O)C(=O)O1 (stereo not given)
17: Nc1nc(CSCc2ccccc2)nc(N2CCOCC2)n1
18: Nc1nc(CSc2nc3ccccc3s2)nc(N2CCOCC2)n1
19: CC(C)NC(=O)Nc1ccc2c(c1)C(=O)N([C@H](C)CO)C[C@@H](C)[C@H](CN(C)Cc1ccc(Cl)c(Cl)c1)OCCCC[C@H](C)O2
20: CO[C@H]1CN(C)C(=O)c2cc(NC(C)=O)ccc2OC[C@H](C)N(C(=O)c2cccnc2)C[C@H]1C

screen / no. | 16 | 17 | 18 | 19 | 20
MC4R antag cAMP | 9 | 15 | 5 | nt | nt
HDAC3 inh | 4 | -5 | 3 | nt | nt
MC4R barr agon | -2 | 1 | -1 | nt | nt
UUG fidelity | -8 | nt | nt | 35 | -4
ALR inh | 98* | -1 | 99* | nt | nt
NALP1 inh | 19 | 20 | -3 | nt | nt

# 4 compounds drawn at random from the list so far, as already listed:
20: CO[C@H]1CN(C)C(=O)c2cc(NC(C)=O)ccc2OC[C@H](C)N(C(=O)c2cccnc2)C[C@H]1C
16: CC1CC2(CC(C)(C(=O)CSc3nc4ccccc4s3)OC2=O)C(=O)O1 (stereo not given)
17: Nc1nc(CSCc2ccccc2)nc(N2CCOCC2)n1
18: Nc1nc(CSc2nc3ccccc3s2)nc(N2CCOCC2)n1

screen / no. | 20 | 16 | 17 | 18
MC4R antag cAMP | nt | 9 | 15 | 5
HDAC3 inh | nt | 4 | -5 | 3
MC4R barr agon | nt | -2 | 1 | -1
UUG fidelity | -4 | -8 | nt | nt
ALR inh | nt | 98* | -1 | 99*
NALP1 inh | nt | 19 | 20 | -3

# Later entries.
21: O=C(CSc1nc2ccccc2s1)NCc1ccc2c(c1)OCO2
22: CC1(C)CC2(CC(C)(C(=O)CSc3nc4ccccc4s3)OC2=O)C(=O)O1 (stereo not given)
23: CC1(C(=O)CSc2nc3ccccc3s2)CCC(=O)O1 (stereo not given)
24: COCCn1nnnc1SCC(=O)NCc1ccc2c(c1)OCO2
25: NC(=O)C1(N2CCCCC2)CCN(C(=O)CSc2nc3ccccc3s2)CC1

screen / no. | 21 | 22 | 23 | 24 | 25
MC4R antag cAMP | -5 | 0 | 6 | -1 | 3
HDAC3 inh | 4 | 1 | -3 | -13 | -4
MC4R barr agon | -2 | 2 | -2 | -2 | 0
UUG fidelity | nt | -6 | -9 | 1 | nt
ALR inh | 98* | 91* | 99* | 96* | nt
NALP1 inh | 16 | 4 | 32 | 0 | 1

26: CN1[C@@H]2c3ccc(-c4ccccc4)c(=O)n3C[C@H]1[C@H](CO)[C@H]2C(=O)NCCc1ccccc1
27: C[C@H](CO)N1C[C@H](C)[C@H](CN(C)C(=O)Nc2ccc3c(c2)OCO3)Oc2c(NC(=O)C3CCOCC3)cccc2C1=O
28: CN(C)CC(=O)N[C@H]1CC[C@H](CC(=O)NCc2ccccc2F)O[C@H]1CO
29: C[C@@H]1CN([C@@H](C)CO)C(=O)c2cc(NC(=O)CCC(F)(F)F)ccc2O[C@@H](C)CCCCO[C@@H]1CN(C)C(=O)Nc1ccc(F)cc1
30: CCCNC(=O)N1[C@@H]2CN(C(=O)NC(C)C)c3ccccc3[C@@H]2[C@@H]1CO

screen / no. | 26 | 27 | 28 | 29 | 30
MC4R antag cAMP | nt | nt | nt | nt | nt
HDAC3 inh | nt | nt | nt | nt | nt
MC4R barr agon | nt | nt | nt | nt | nt
UUG fidelity | 1 | -8 | 3 | -6 | 0
ALR inh | nt | nt | nt | nt | nt
NALP1 inh | nt | nt | nt | nt | nt

31: C[C@@H]1CN([C@@H](C)CO)S(=O)(=O)c2ccc(C#CC3CC3)cc2O[C@H]1CN(C)Cc1cccc(F)c1
32: O=C(CSc1nc(-c2ccccc2)c(-c2ccccc2)o1)N1CCOCC1
33: C[C@@H]1CCCCO[C@@H](CN(C)C(=O)CCCN(C)C)[C@@H](C)CN([C@H](C)CO)C(=O)c2cc(NC(=O)c3ccccc3)ccc2O1
34: COc1cccc(N=Cc2nc(-c3ccccc3)oc2OC(C)=O)c1
35: Cc1ccc(C(=O)Oc2oc(-c3ccccc3)nc2C=Nc2ccc(N(C)C)cc2)cc1

screen / no. | 31 | 32 | 33 | 34 | 35
MC4R antag cAMP | nt | 3 | nt | 3 | 1
HDAC3 inh | nt | nt | nt | 59* | -10
MC4R barr agon | nt | -1 | nt | -1 | 0
UUG fidelity | -8 | 111* | 6 | 5 | nt
ALR inh | nt | nt | nt | 44 | 57
NALP1 inh | nt | -4 | nt | -4 | -2

36: COc1ccc(N=Cc2nc(-c3ccccc3)oc2OC(C)=O)cc1
37: CN(C)c1ccc(N=Cc2nc(-c3ccccc3)oc2OC(=O)c2cccc(Cl)c2)cc1
38: COc1ccc(CN(C)C[C@@H]2Oc3ccc(NC(=O)Cc4cn(C)c5ccccc45)cc3C(=O)N([C@@H](C)CO)C[C@@H]2C)cc1
39: CCCC#Cc1ccc2c(c1)O[C@@H](CN(C)Cc1cccnc1)[C@H](C)CN([C@@H](C)CO)S2(=O)=O
40: CCN(CC)S(=O)(=O)c1cccc(C(=O)NCCc2ccccc2)c1

screen / no. | 36 | 37 | 38 | 39 | 40
MC4R antag cAMP | 23 | 8 | nt | nt | -3
HDAC3 inh | 38* | 1 | nt | nt | 3
MC4R barr agon | 2 | -3 | nt | nt | -1
UUG fidelity | -5 | nt | 8 | -8 | -12
ALR inh | -10 | 45 | nt | nt | 19
NALP1 inh | 14 | 20 | nt | nt | nt

41: CN(c1ccccc1)S(=O)(=O)c1cccc(C(=O)NCCc2ccc(O)c(O)c2)c1
42: CC(=O)CCSc1nnc(-c2cccc(S(=O)(=O)N3CCOCC3)c2)o1
43: O=S(=O)(c1cccc(-c2nnc(SCc3nc4ccccc4s3)o2)c1)N1CCOCC1
44: Cc1ccc(-n2ccnc(SCC(=O)NC3CCCC3)c2=O)cc1F
45: CCn1cnc2scc(-c3ccc(OC)cc3)c2c1=O
46: COc1ccc(-c2cn(-c3ccccc3)nc2CO)cc1
47: COc1ccc(-c2nn(-c3ccccc3)cc2CO)cc1

screen / no. | 41 | 42 | 43 | 44 | 45 | 46 | 47
MC4R antag cAMP | 11 | 9 | 7 | 11 | 0 | 2 | -5
HDAC3 inh | -2 | 1 | 1 | -5 | 2 | 7 | 8
MC4R barr agon | -3 | -1 | -1 | -2 | -1 | 0 | 5
UUG fidelity | nt | nt | -47 | 13 | 23 | 22 | -6
ALR inh | 93* | -1 | 98* | 94* | 1 | 97* | 5
NALP1 inh | 5 | nt | 0 | nt | 10 | 26 | 12
